PMC8779485, “Implementation and Comparison of Two Pharmacometric Tools for Model-Based Therapeutic Drug Monitoring and Precision Dosing of Daptomycin” (Pharmaceutics, 2022)
Where two headings read alike, the source gives them in different places.

Key:
[1] = human, in vivo
[2] = human, in vivo; SD

## CCCCCCCCCC(=O)N[C@@H](Cc1c[nH]c2ccccc12)C(=O)N[C@H](CC(N)=O)C(=O)N[C@@H](CC(=O)O)C(=O)N[C@@H]1C(=O)NCC(=O)N[C@@H](CCCN)C(=O)N[C@@H](CC(=O)O)C(=O)N[C@H](C)C(=O)N[C@@H](CC(=O)O)C(=O)NCC(=O)N[C@H](CO)C(=O)N[C@@H]([C@H](C)CC(=O)O)C(=O)N[C@@H](CC(=O)c2ccccc2N)C(=O)O[C@@H]1C [daptomycin, Daptomycin]
[1]
  Proportion of patients with Cmin > 24.3 mg/L (overexposed): 31.9%
[1]; SD
  Dmax (maximum effective dose associated with Cmin = 24.3 mg/L at steady-state): 12.0 ± 8.6 mg/kg
[2]
  Dmax (maximum effective dose associated with Cmin = 24.3 mg/L at steady-state): 14.7 ± 10.7 mg/kg
